Source: PubChem
A selection: hits, their analogues and other compounds. The true share with any hit is near 1.5%.
miR122 inh – inhibitors of miR-122 in Huh7 cells. Huh7 miR-122 Renilla luciferase sensor, 48 h; neutral wells = 0, positive control = 100. activation (reporter increase), % at 12.5 µM. 0.3% of 340,000 active. AID 602342;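 active means mean replicate activation score at least 90 and every replicate individually at or above 90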;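 further: higher luciferase means less miR-122 activity so hits act as miR-122 inhibitors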
Cneo AK release – causes C. neoformans cell lysis. adenylate kinase release luminescence, 4 h; normalised: neutral wells 0, clomiphene wells 100. lysis activity, % at 15 µM. 0.2% of 360,000 active. AID 651654;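 active means mean lysis activity across replicates of at least 80%, whatever share of replicates individually reach that level; inactive means mean lysis activity below 80%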
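read-out = cell lysis signal | test system = log-phase Cryptococcus neoformans yeast cells | input = cells at 5 × 10^6 per mL | medium = fresh YPD growth medium | signal = luminescent adenylate kinase detection reagent | timing = 4 h at 37 °C static, read 1 h later | dosing = single dose | controls = Clomiphene as positive lysis control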
PGC1a acetyl inh – modulators of PGC1a acetylation; U2OS PGC1a acetylation, AlphaScreen anti-acetyl-lysine; with virally co-expressed GCN5 acetyltransferase; inhibition, % at 15.6 µM; 0.17% of 350,000 active; AID 651687;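 active means every replicate shows inhibition of at least 40%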;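 further: 0% = neutral control wells and 100% = positive control wells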
UUG fidelity – yeast start codon fidelity modulation; AID 602363; activity score, % at 18.7 µM; S. cerevisiae UUG-firefly luciferase reporter, luminescence/redox ratio; 0.13% of 350,000 active;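 active means replicate mean at a twofold rise or more, about +100% in these data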;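 further: firefly luciferase made from a UUG start codon reports start codon fidelity; reporter light over untreated wells divided by growth signal over untreated wells; some hits fall short of that in this replicate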
FN deposit inh – fibronectin deposition inhibition | AH1F fibroblasts, Alexa488-fibronectin deposition fluorescence, overnight | inhibition, % at 12.6 µM | 0.086% of 350,000 active;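 active means mean inhibition across replicates of 30% or more, regardless of how many single replicates reach that level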;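 further: positive control wells lacked labelled fibronectin entirely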
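Assay system: AH1F fibroblasts assembling fluorescent fibronectin matrix; Amount: 10000 AH1F cells per well; Buffer or medium: DMEM, 2% serum; Probe or stimulus: Alexa488-fibronectin, 24 nM final in well; Doses: single compound dose, delivered by pin transfer; Incubation: 1 h adhesion, overnight exposure; Measured by: fluorescence 485/525 nm; Read-out: fibronectin deposition inhibition.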
Env fusion inh – blocks HIV Env-driven cell-cell fusion | HeLa-JRFL Env/CEM21 cell fusion, luciferase | inhibition, % at 12.3 µM | AID 651610 | 1.1% of 360,000 active;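 active means mean replicate inhibition score of at least 50 and every replicate individually at or above 50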;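 further: 0% = plate neutral controls and 100% = maraviroc near 300 nM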
* marks the source's active call; other numbers are inactive results; . = no result; [ ] = dose if it differs, or a comment.

SMILES	miR122 inh	Cneo AK release	PGC1a acetyl inh	UUG fidelity	FN deposit inh	Env fusion inh
C[C@@H]1CCCCO[C@H](CN(C)C(=O)Nc2ccc(C(F)(F)F)cc2)[C@H](C)CN([C@@H](C)CO)C(=O)c2cc(NC(=O)c3ccccc3)ccc2O1	-11[16.7 µM]	0	.	-13	.	73*[16.7 µM]
C[C@@H]1CN([C@H](C)CO)S(=O)(=O)c2ccc(C#CC3CC3)cc2O[C@@H]1CN(C)Cc1ccccc1	38[16.7 µM]	11	-18	-2	.	14[16.7 µM]
Cn1nccc1C(=O)N/N=C/c1c(O)ccc2ccccc12	6	-1	.	-12	13	66*
O=C(NN=Cc1c(O)ccc2ccccc12)c1ccncc1	9	.	3	.	20	-37
O=C(CCN1C(=O)c2ccccc2C1=O)N1CCN(c2ccccc2)CC1	-2	3	-5	-3	.	10
COc1cc(/C=C2\CCC/C(=C\c3ccc(O)c(OC)c3)C2=O)ccc1O	.	0	28	-19	11	-10
COc1cc(/C=C2\COC/C(=C\c3cc(OC)c(OC)c(OC)c3)C2=O)cc(OC)c1OC	.	.	.	.	-8	110*
COc1cc(/C=C2\CC/C(=C\c3cc(OC)c(O)c(OC)c3)C2=O)cc(OC)c1O	.	.	.	.	1	77*
COc1cc(/C=C2/CCC/C(=C\c3cc(O)c(OC)c(Cl)c3)C2=O)cc(Cl)c1O	113*	-1	-18	-17	26	27
COc1cc(/C=C2/CCc3ccccc3C2=O)cc(OC)c1OC	9	-2	18	0	9	30
COc1ccc(/C=C2/CCc3ccccc3C2=O)cc1OC	-4	-13	7	2	0	58*
C=C(C)CNC(=S)N/N=C(\C)c1cccc(NC(C)=O)c1	.	.	.	.	-1	5
COCCCNC(=O)C[C@H]1C[C@H](C(=O)N2CCOCC2)[C@@]2(C)c3[nH]c4ccc(Cl)cc4c3CCN2C1=O	-4	12	6	7	14	23
Cn1cc(CC(=O)Nc2cccc(C#N)c2)c2ccccc21	138*	0	-6	-7	.	.
O=C(NC12CC3CC(CC(C3)C1)C2)N1CCN(c2ccccc2)CC1	11	4	-16	-24	4	-74
COc1ccccc1NS(=O)(=O)c1ccc2oc(SCc3ccc(C#N)cc3)nc2c1	.	.	.	.	2	58*
C[C@@H]1CN([C@H](C)CO)C(=O)c2cc(N(C)C)ccc2O[C@@H](C)CCCCO[C@@H]1CN(C)Cc1ccncc1	-6[16.7 µM]	1	3	13	.	-8[16.7 µM]
COc1ccc(Cl)cc1S(=O)(=O)N1CCN=C1C	32	-2	6	14	-2	34*
COc1ccc(Cl)cc1NS(=O)(=O)c1cc(Cl)ccc1OC	255*	.	6	-10	.	-55
COc1cc(NS(=O)(=O)c2ccc(C)c(C)c2)c(OC)cc1Cl	226*	0	-19	1	7	-44

Next section (6 carried over from the part before).
SMILES	miR122 inh	Cneo AK release	PGC1a acetyl inh	UUG fidelity	FN deposit inh	Env fusion inh
O=C(NC12CC3CC(CC(C3)C1)C2)N1CCN(c2ccccc2)CC1	11	4	-16	-24	4	-74
COc1ccccc1NS(=O)(=O)c1ccc2oc(SCc3ccc(C#N)cc3)nc2c1	.	.	.	.	2	58*
C[C@@H]1CN([C@H](C)CO)C(=O)c2cc(N(C)C)ccc2O[C@@H](C)CCCCO[C@@H]1CN(C)Cc1ccncc1	-6[16.7 µM]	1	3	13	.	-8[16.7 µM]
COc1ccc(Cl)cc1S(=O)(=O)N1CCN=C1C	32	-2	6	14	-2	34*
COc1ccc(Cl)cc1NS(=O)(=O)c1cc(Cl)ccc1OC	255*	.	6	-10	.	-55
COc1cc(NS(=O)(=O)c2ccc(C)c(C)c2)c(OC)cc1Cl	226*	0	-19	1	7	-44
COc1ccc(Cl)cc1S(=O)(=O)NCc1cccnc1	120*	0	-9	-5	0	-10
CCCCn1c(SCC(=O)Nc2ccc3c(c2)OCO3)nc2c1c(=O)n(C)c(=O)n2C	5	1	6	0	.	79*
CCCn1c(SCC(=O)Nc2ccc(NC(=O)CC)cc2)nc2c1c(=O)n(C)c(=O)n2C	-8	4	.	-1	4	-6
Cn1c(=O)c2c(nc(SCC(=O)NCc3ccc4c(c3)OCO4)n2Cc2ccccc2)n(C)c1=O	2	-1	2	-7	.	.
Cn1c(=O)c2c(nc(SCC(=O)NCc3ccc4c(c3)OCO4)n2Cc2ccc(F)cc2)n(C)c1=O	0	-2	2	-21	-4	137*
Cc1nc([N+](=O)[O-])cn1CC(=O)NCCCO	.	.	.	.	1	.
O=c1ccc(=O)n(CCc2ccccn2)[nH]1	.	.	.	.	3	4
c1ccc(CCn2cccc2)nc1	-8	0	-10	.	.	59*
CCOc1ccc(Cl)cc1S(=O)(=O)n1cnc2cc(C)c(C)cc21	183*	0	6	-3	1	5
Cc1ccc(C(c2nnnn2CS(=O)(=O)c2ccc(C)cc2)N2CCCC2)cc1 (stereo not given)	8	.	.	.	-1	73*
CCN1C(=O)c2cccc3c(S(=O)(=O)Nc4ncccc4C)ccc1c23	96*	-8	-6	-10	-7	-75
CCN1C(=O)c2cccc3c(S(=O)(=O)Nc4ccccc4)ccc1c23	151*	1	-24	-12	.	.
CN(C)S(=O)(=O)c1ccc(NC=C(C#N)C#N)cc1	2	138*	12	-10	-1	-9
Cc1cccc(NS(=O)(=O)c2cc3c4c(c2)C(C)C(=O)N4CCC3)c1 (stereo not given)	110*	0	0	-4	4	3
Oc1cccc2ccc(Nc3ccccn3)nc12	4	-3	.	-41	10	60*
c1ccc(Nc2ccccc2Nc2ccccn2)nc1	-7	.	16	.	.	.
C/C(=N/NC(=O)c1ccncc1)c1ccc(NC(=O)c2ccc(Cl)cc2Cl)cc1	-6	-1	8	-31	.	-25
O=C(Nc1ccccc1F)N1CC2(C1)[C@H](c1ccccc1)[C@@H](CO)N2C(=O)CC1CC1	.	.	3	.	.	.
Fc1cc2[nH]c(=S)[nH]c2cc1Cl	.	.	.	.	-5	57*
Cc1cc2[nH]c(=S)[nH]c2cc1C	-3	.	3	.	8	-274
C[C@@H]1CN(C)C(=O)c2cc(N)ccc2O[C@H]1CN(C)S(C)(=O)=O	.	.	.	.	-10	.
CS(=O)(=O)N1CCc2cc(-c3csc(NC(=O)Cc4cccs4)n3)ccc21	-2	-2	-8	-2	.	76*
COCC#Cc1ccc2c(c1)O[C@H](CN(C)S(=O)(=O)c1ccc(F)cc1)[C@H](C)CN([C@H](C)CO)S2(=O)=O	15[16.7 µM]	-1	-3	5	.	5[16.7 µM]
O=C(c1[nH]c(C(F)(F)F)nc1-c1ccccc1)N1CCN(C/C=C/c2ccccc2)CC1	-5	1	-7	-10	-2	-2
CN=c1scc(-c2cccs2)n1/N=C/c1ccccc1O	.	.	.	.	.	57*
CN=c1scc(-c2cccs2)n1/N=C/c1ccc(O)c(O)c1O	.	.	.	.	-15	-253
CCN(CCn1cccn1)C(=O)CC1C(=O)NCCN1CC1CCCCC1 (stereo not given)	.	.	.	.	-6	-5
CCN(CCn1cccn1)C(=O)CC1C(=O)NCCN1CCc1ccccc1 (stereo not given)	-11	-2	6	-4	-11	88*
Cc1nn2c3ccccc3n(CC(=O)c3cccs3)c2nc1=O	.	.	3	.	7	16
Cc1cccc(NC(=S)N=Nc2c(O)n(C)c3ccc(S(=O)(=O)N4CCOCC4)cc23)c1	-2	-2	.	-17	4	58*
COCC(=O)N1[C@H](C#N)[C@@H](c2ccc(-c3cccnc3)cc2)[C@@H]1CO	.	-5	7	.	0	.
Nc1cc(=O)[nH]c(SCCSc2cc(Cl)ccc2Cl)n1	-1	-3	1	5	4	69*
